Literature values in patent publication US20220409620A1, “REDUCING IMMUNOGENICITY TO PEGLOTICASE” (Horizon Pharma Rheumatology LLC, priority 2016, published 2022).

Tested on: patients
Settings: prophylaxis of gout; cited from earlier work

COc1cc2c(c(OC)c1OC)-c1ccc(OC)c(=O)cc1[C@@H](NC(C)=O)CC2 [colchicine]
diarrhea: 23%
pharyngolaryngeal pain: 3%
